The text below walks through data of US20110040072A1, “MONO AND DI-SUBSTITUTED OXYCODONE COMPOUNDS AND COMPOSITIONS” (SHIRE LLC, priority 2006, published 2011).

This series is described as follows: Oral bioavailability / oral pharmacokinetics of oxycodone conjugates in rats.

Consider OC-β-alanine, for which, under “reference = 100”, the “AUC % (Oral Bioavailability)” value was determined as 144%. Further, the “Oral (% AUC)” value (relative to OXY = 100, n = 4 animals, analysis by LC-MS) is recorded as 144 % AUC.
